Laboratory results published in paper PMC10223265 (Viruses, 2023).

The chains behind the UniProt entries cited, without tags or fusion partners.
UniProt P51681, whole entry: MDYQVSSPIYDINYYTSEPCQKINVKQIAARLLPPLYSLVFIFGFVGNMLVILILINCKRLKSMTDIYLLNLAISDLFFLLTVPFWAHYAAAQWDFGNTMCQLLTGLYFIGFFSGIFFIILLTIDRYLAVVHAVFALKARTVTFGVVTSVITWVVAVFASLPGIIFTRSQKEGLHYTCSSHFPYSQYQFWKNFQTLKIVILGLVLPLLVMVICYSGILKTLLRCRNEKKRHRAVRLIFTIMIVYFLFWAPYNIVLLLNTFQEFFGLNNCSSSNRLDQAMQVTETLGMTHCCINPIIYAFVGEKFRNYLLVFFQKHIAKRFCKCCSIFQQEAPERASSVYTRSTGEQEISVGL

Biological target: CCR5 (Homo sapiens, UniProt P51681)
Test: RANTES-induced calcium mobilization assay in CCR5-expressing HEK293 cells
Assay type: cell-based
Conditions: RANTES 34.6 nM, HEK293 cells expressing Gα15 and CCR5, Fluo-4

maraviroc
IC50: 0.68 nM
